Legend:
[1] = molecular target: T1, human CMKLR1 (chemerin receptor) (human, UniProt Q99788 1-373); experiment: cell-based or functional assay
T1 sequence (looked up): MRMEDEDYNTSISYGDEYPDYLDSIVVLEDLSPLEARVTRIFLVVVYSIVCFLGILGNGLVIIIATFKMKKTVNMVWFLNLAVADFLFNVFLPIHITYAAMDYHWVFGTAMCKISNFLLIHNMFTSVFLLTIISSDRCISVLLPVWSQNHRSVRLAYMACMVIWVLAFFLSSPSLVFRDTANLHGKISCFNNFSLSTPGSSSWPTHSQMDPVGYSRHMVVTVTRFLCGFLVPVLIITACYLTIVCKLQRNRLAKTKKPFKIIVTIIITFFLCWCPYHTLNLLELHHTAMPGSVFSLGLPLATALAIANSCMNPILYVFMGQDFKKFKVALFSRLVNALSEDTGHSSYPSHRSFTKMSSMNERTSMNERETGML

[2] = molecular target: T2, mouse CMKLR1 (chemerin receptor) (mouse, UniProt P97468 1-371); experiment: cell-based or functional assay
T2 sequence (looked up): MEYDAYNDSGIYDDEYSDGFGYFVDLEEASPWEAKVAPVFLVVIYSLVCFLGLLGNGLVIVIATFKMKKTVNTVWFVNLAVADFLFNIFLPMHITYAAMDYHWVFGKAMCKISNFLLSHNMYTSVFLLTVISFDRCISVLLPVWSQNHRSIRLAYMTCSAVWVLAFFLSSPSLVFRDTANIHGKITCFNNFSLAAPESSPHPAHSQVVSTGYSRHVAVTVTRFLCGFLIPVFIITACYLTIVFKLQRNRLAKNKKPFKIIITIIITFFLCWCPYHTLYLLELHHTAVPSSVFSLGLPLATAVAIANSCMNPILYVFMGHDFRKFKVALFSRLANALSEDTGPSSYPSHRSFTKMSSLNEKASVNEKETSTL

EC50 [1]: 4.3 nM
EC50 (nM), + wash [1]: 90.2 nM
pEC50 [1]: 8.35
EC50 [2]: 4 nM
EC50 (nM), + wash [2]: 42.9 nM
pEC50 [2]: 8.38
B1: l-Chem 149-157 (lipidated C-terminal 9 amino acids of human chemerin) (peptide)
peptide: KGGYFPGQFAFS
modifications: N-terminus pegylated with PEG8-propionic acid, palmitic acid coupled to the N-terminal amine of the PEG

— patent publication US10233219 (TUFTS MEDICAL CENTER, dated 2019)
